assay: soluble on expression in E. coli; label from the status in PepcDB or PDB records

Soluble on expression in E. coli, soluble:
MDEDVLTTLKILIIGESGVGKSSLLLRFTDDTFDPELAATIGVDFKVKTISVDGNKAKLAIWDTAGQERFRTLTPSYYRGAQGVILVYDVTRRDTFVKLDNWLNELETYCTRNDIVNMLVGNKIDKENREVDRNEGLKFARKHSMLFIEASAKTCDGVQCAFEELVEKIIQTPGLWESENQNKGVKLSHREEGQGGGACGGYCSVL
MEEQPQMQDADEPADSGGEGRAGGPPQVAGAQAACSEDRMTLLLRLRAQTKQQLLEYKSMVDASEEKTPEQIMQEKQIEAKIEDLENEIEEVKVAFEIKKLALDRMRLSTALKKNLEKISRQSSVLMDNMKHLLELNKLIMKSQQESWDLEEKLLDIRKKRLQLKQASESKLLEIQTEKNKQKIDLDSMENSERIKIIRQNLQMEIKITTVIQHVFQNLILGSKVNWAEDPALKEIVLQLEKNVDMM
MENDPNLFVALYDFVASGDNTLSITKGEKLRVLGYNHNGEWCEAQTKNGQGWVPSQYITPVNS
MPVAVMAESAFSFKKLLDQCENQELEAPGGIATPPVYGQLLALYLLHNDMNNARYLWKRIPPAIKSANSELGGIWSVGQRIWQRDFPGIYTTINAHQWSETVQPIMEALRDATRRRAFALVSQAYTSIIADDFAAFVGLPVEEAVKGILEQGWQADSTTRMVLPRKPVAGALDVSFNKFIPLSEPAPVPPIPNEQQLARLTDYVAFLEN
MVRSGNKAAVVLCMDVGFTMSNSIPGIESPFEQAKKVITMFVQRQVFAENKDEIALVLFGTDGTDNPLSGGDQYQNITVHRHLMLPDFDLLEDIESKIQPGSQQADFLDALIVSMDVIQHETIGKKFEKRHIEIFTDLSSRFSKSQLDIIIHSLKKCDISLQFFLPFSLGKEDGSGDRGDGPFRLGGHGPSFPLKGITEQQKEGLEIVKMVMISLEGEDGLDEIYSFSESLRKLCVFKKIERHSIHWPCRLTIGSNLSIRIAAYKSILQERVKKTWTVVDAKTLKKEDIQKETVYCLNDDDETEVLKEDIIQGFRYGSDIVPFSKVDEEQMKYKSEGKCFSVLGFCKSSQVQRRFFMGNQVLKVFAARDDEAAAVALSSLIHALDDLDMVAIVRYAYDKRANPQVGVAFPHIKHNYECLVYVQLPFMEDLRQYMFSSLKNSKKYAPTEAQLNAVDALIDSMSLAKKDEKTDTLEDLFPTTKIPNPRFQRLFQCLLHRALHPREPLPPIQQHIWNMLNPPAEVTTKSQIPLSKIKTLFPLIEAKKKDQVTAQEIFQDNHEDGPTAK

From the DeepSol protein solubility set
